Laboratory results published in BindingDB's records for doi:10.7270/Q2474894 (Burnham Center for Chemical Genomics, 2009).

Biological target: T1, Tyrosine-protein phosphatase non-receptor type 7 (Homo sapiens, UniProt P35236)
T1 sequence (P35236 whole entry): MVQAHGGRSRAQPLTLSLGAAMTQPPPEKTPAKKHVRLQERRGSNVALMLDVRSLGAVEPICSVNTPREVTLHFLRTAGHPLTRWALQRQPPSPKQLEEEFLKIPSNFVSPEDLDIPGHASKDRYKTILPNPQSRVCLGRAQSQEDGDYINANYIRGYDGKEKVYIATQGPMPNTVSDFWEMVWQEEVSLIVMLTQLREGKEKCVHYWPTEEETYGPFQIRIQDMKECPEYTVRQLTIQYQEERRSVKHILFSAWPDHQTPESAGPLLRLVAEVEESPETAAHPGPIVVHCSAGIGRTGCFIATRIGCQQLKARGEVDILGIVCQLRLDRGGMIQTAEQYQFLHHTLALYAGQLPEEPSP

O=S(=O)(O)c1ccc2cc(N=Nc3cc(S(=O)(=O)O)c4cccnc4c3O)ccc2c1 [disodium;(7E)-8-oxidanylidene-7-[(6-sulfonatonaphthalen-2-yl)hydrazinylidene]quinoline-5-sulfonate]
IC50: 2.67 µM
